Measured values: ChEMBL document CHEMBL2413008, “Carbonic anhydrase inhibitors: Synthesis and inhibition of the cytosolic mammalian carbonic anhydrase isoforms I, II and VII with benzene sulfonamides incorporating 4,5,6,7-tetrachlorophthalimide moiety” (Bioorg Med Chem, 2013)

Chains of the proteins cited; added tags and fusions are not shown. Lines headed by an entry give the natural chain unless they say otherwise; changes in a name come on top.
UniProt P00915: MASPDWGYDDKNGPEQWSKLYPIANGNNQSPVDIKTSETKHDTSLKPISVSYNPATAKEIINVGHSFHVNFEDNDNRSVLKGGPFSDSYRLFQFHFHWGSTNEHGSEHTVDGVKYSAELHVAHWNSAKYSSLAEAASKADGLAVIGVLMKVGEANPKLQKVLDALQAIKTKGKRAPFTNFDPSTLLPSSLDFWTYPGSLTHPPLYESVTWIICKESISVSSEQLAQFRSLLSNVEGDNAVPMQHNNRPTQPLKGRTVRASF

Target: Carbonic anhydrase 1 (Homo sapiens, UniProt P00915)

- Ki: > 10 µM
Structure (SMILES): NS(=O)(=O)c1ccccc1N1C(=O)c2c(Cl)c(Cl)c(Cl)c(Cl)c2C1=O
